Test results as given in patent US6875582B1 (priority 1999, dated 2005).

System: E. coli ATCC 11775
Conditions: EMS 2% w/v 30 min, NQO 400 μg/ml 60 min, MNNG 10 μg/ml 10 min, average of two experiments

SMILES: CN(N=O)C(=N)N[N+](=O)[O-]
- Mutant Frequencies (NA^R phenotype): 1.1 × 10^−8
- Survival (%) (vs non-treated control = 100%): 43%
